Test [1] has as its target MalFGK2 complex (maltose ABC transporter), His6 on MalK, reconstituted in nanodiscs or in proteoliposomes (E. coli K12) (UniProt P02916).
Test [2] shares this target. Description: co-sedimentation; as a7 but with AMP-PNP (1 mM) and maltose (1 mM).
For test [3] the target is unchanged. Description: co-sedimentation; MalFGK2 proteoliposomes (2 µM) incubated with [^125I]-MalE or variants in 20 mM Tris-HCl pH 8, 10 mM MgCl2 with AMP-PNP (1 mM), 10 min 37°C; diluted 25-fold, ultracentrifugation (100,000 x g, 1 h); SDS-PAGE, Coomassie and autoradiography.
For test [4] the target is unchanged. This is another data set of the same source.

This note sets out measurements from paper PMC3328499 (PLoS ONE, 2012).

Turning to “MalE (maltose-binding protein), wild type (from UniProt P0AEX9 27-396) (natural protein)”, the apparent Km for MalE of the steady-state transport ATPase of MalFGK2 proteoliposomes, maltose 2 mM in test [1] amounted to 14 µM. The substance also yielded a fold reduction of the equilibrium binding affinity by maltose against AMP-PNP alone in test [2] of over 3 fold. Moreover, the fold increase of the affinity for MalE with AMP-PNP against no nucleotide in test [3] was over 30 fold. For the same substance, in test [4], the fold increase of the rate of ATP hydrolysis of MalFGK2 (2 µM) by MalE (2 µM), 37°C, in detergent was 1.3 fold; the fold increase of the rate of ATP hydrolysis of MalFGK2 (2 µM) by MalE (2 µM), 37°C, in disc is 3 fold; the fold increase of the rate of ATP hydrolysis of MalFGK2 (2 µM) by MalE (2 µM), 37°C, in the membrane (proteoliposomes) was 4 fold.

Turning to “MalE-254 (mutation D65N) (from UniProt P0AEX9 27-396) (natural protein)”, the apparent Km for MalE-254 of the steady-state transport ATPase of MalFGK2 proteoliposomes, maltose 2 mM in test [1] amounted to 4 µM.

As for “MalE-A96W/I329W (from UniProt P0AEX9 27-396) (natural protein)”, in test [1], the apparent Km for MalE-DW of the steady-state transport ATPase of MalFGK2 proteoliposomes, maltose 2 mM came out at 25 µM. This substance also showed a fold less co-sedimentation than MalE-wt in test [3] of 5 fold.
